Earlier results, collected in US20240165099A1, “METHODS FOR THE TREATMENT AND PREVENTION OF DISEASES OR INFECTIONS WITH MCP-1 INVOLVEMENT BY ADMINISTRATION OF TAFENOQUINE” (60 DEGREES PHARMACEUTICALS LLC, priority 2022, published 2024).

System: blood stages of P. falciparum
Details: Baird et al. 2002; McCarthy et al. 2019; cited from earlier work

COc1cc(NC(C)CCCN)c2ncccc2c1 (stereo not shown) [Primaquine]
activity against the blood stages of P. falciparum: only week activity
